Data published in article PMC4018390, “Important Role of CYP2J2 in Protein Kinase Inhibitor Degradation: A Possible Role in Intratumor Drug Disposition and Resistance” (PLoS ONE, 2014).

Amino acid sequences for entries named in this document (tags omitted).
UniProt P08684, whole entry: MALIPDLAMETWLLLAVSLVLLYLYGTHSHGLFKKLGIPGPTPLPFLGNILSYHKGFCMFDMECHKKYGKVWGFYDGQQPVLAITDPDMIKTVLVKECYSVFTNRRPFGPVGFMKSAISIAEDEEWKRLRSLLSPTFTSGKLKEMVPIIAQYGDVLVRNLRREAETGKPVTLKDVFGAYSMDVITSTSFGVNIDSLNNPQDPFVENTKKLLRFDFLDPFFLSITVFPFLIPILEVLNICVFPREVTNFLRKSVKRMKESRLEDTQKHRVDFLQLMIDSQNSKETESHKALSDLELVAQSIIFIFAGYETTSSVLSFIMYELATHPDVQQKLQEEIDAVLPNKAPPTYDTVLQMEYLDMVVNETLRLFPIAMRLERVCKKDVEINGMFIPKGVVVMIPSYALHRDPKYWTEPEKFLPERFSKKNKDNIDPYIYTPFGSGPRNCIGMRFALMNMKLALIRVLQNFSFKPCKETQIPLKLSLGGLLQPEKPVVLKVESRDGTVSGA

Legend:
CYP3A4 = CYP3A4 (Homo sapiens, UniProt P08684); assay: Michaelis-Menten kinetics of TKI metabolite production, cDNA expressed CYP3A4 microsomes; conditions: CYP3A4 (reference, set to 1.0); Vmax/Km for production of the labelled metabolite
CYP1A1 = target: T1, CYP1A1 (Homo sapiens, UniProt P04798); assay: Michaelis-Menten kinetics of TKI metabolite production, cDNA expressed CYP1A1 microsomes; conditions: Vmax/Km for production of the labelled metabolite, as fold difference of the intrinsic clearance of CYP3A4
T1 sequence (P04798 1-512): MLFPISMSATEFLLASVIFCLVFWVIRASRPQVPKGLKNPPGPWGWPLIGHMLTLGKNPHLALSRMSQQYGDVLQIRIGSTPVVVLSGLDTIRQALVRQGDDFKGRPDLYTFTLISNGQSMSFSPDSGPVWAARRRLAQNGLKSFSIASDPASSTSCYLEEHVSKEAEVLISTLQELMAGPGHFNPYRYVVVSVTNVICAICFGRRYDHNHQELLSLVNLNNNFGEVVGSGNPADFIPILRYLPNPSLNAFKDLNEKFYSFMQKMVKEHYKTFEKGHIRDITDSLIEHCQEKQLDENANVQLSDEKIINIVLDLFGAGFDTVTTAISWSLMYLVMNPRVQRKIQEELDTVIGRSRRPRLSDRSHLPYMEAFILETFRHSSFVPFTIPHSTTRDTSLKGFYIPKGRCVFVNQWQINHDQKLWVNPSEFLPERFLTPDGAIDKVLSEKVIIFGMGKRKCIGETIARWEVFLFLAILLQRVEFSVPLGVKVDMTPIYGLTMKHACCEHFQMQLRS

CYP2J2 = target: T2, CYP2J2 (Homo sapiens, UniProt P51589); assay: Michaelis-Menten kinetics of TKI metabolite production, cDNA expressed CYP2J2 microsomes; conditions: Vmax/Km for production of the labelled metabolite, as fold difference of the intrinsic clearance of CYP3A4
T2 sequence (P51589 1-502): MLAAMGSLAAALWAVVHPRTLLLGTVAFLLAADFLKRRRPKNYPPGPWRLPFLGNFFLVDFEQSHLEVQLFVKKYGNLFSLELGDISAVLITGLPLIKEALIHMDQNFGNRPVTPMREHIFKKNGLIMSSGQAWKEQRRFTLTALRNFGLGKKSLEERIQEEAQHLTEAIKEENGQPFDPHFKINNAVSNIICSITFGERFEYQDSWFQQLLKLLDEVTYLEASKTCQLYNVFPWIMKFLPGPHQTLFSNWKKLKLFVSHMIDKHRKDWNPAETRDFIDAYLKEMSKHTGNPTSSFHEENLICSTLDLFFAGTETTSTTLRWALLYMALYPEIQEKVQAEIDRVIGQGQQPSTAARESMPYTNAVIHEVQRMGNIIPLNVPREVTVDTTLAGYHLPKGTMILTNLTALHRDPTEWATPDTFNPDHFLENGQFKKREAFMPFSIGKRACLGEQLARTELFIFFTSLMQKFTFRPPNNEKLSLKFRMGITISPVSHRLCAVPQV

Substance: N-oxide-nilotinib [NO-nilotinib #1]
- Relative Intrinsic Clearance (CYP3A4): 1.0 fold diff.
- Relative Intrinsic Clearance (CYP1A1): 0.5 fold diff.
- Relative Intrinsic Clearance (CYP2J2): 1.3 fold diff.
